According to patent publication US12528818B2, “Compositions and methods for inhibition of RAS” (Leidos Biomedical Research, Inc., priority 2021, dated 2026):

Tests used:
[1] = target: GppNHp-loaded KRAS4b (amino acids 1-169) G12C/C118S protein (Homo sapiens, UniProt P01116, C118S/G12C); test: Covalent cysteine 12 modification by MALDI-TOF MS, GppNHp-loaded KRAS G12C; assay type: biochemical; settings: 15 minutes reaction time, compound 95 or later using 1 μM proteins
[2] = target: T1, GTP-loaded KRAS4b (amino acids 1-169) G12C/C118S protein (Homo sapiens, UniProt P01116, C118S/G12C); test: Covalent cysteine 12 modification by MALDI-TOF MS, GTP-loaded KRAS G12C; assay type: biochemical; settings: 15 minutes reaction time, compound 95 or later using 1 μM proteins
T1 construct: KRAS4b (amino acids 1-169) G12C/C118S protein; made in house

[3] = target: GDP-loaded KRAS4b (amino acids 1-169) G12C/C118S protein (Homo sapiens, UniProt P01116, C118S/G12C); test: Covalent cysteine 12 modification by MALDI-TOF MS, GDP-loaded KRAS G12C; assay type: biochemical; settings: 15 minutes reaction time, compound 95 or later using 1 μM proteins
[4] = target: Avi-KRAS G12C (1-169) GppNHp/RAF1 RBD-3xFLAG (52-151) (Homo sapiens, UniProt P01116, G12C); test: biochemical; settings: Raf1-GppNHp-KRAS G12C disruption, Raf1 RBD-KRAS G12C-GppNHp disruption assay IC50

SMILES	GppNHp-KRAS G12C percent of modification [1]	GTP-KRAS G12C percent of modification [2]	GDP-KRAS G12C percent of modification [3]	IC50 [4] [nM]
C=CC(=O)N1CCC(N(C)c2nc(OC[C@@]34CCCN3C[C@H](F)C4)nc3c(C#N)c(-c4ccc(F)c5sc(N)c(C#N)c45)c(Cl)cc23)[C@H]1C (stereo partly drawn) [Compound 388, 4-((1-acryloyl-2-methylpyrrolidin-3-yl)(methyl)amino)-7-(2-amino-3-cyano-7-fluorobenzo[b]thiophen-4-yl)-6-chloro-2-(((2R,7aS)-2-fluorotetrahydro-1H-pyrrolizin-7a(5H)-yl)methoxy)quinazoline-8-carbonitrile]	A (percent of modification ≥70%)	A (percent of modification ≥70%)	A (percent of modification ≥70%)	< 500
C=CC(=O)N1CC[C@@H](N(C)c2nc(OC[C@@]34CCCN3C[C@H](OC)C4)nc3c(F)c(-c4ccc(F)c5sc(N)nc45)c(C(F)(F)F)cc23)C1 [Compound 290]	A (percent of modification ≥70%)	A (percent of modification ≥70%)	A (percent of modification ≥70%)	< 500
C=CC(=O)N1CCC(N(CC)c2nc(OC[C@@]34CCCN3C[C@H](F)C4)nc3cc(-c4ccc(F)c5sc(N)c(C#N)c45)ccc23)[C@H]1C (stereo partly drawn) [Compound 431]	A (percent of modification ≥70%)	A (percent of modification ≥70%)	A (percent of modification ≥70%)	< 500
C=CC(=O)N1CCN(c2nc(OC[C@@]34CCCN3C[C@H](F)C4)nc3c(F)c(-c4ccc(F)c5sc(N)c(C#N)c45)c(C(F)(F)F)cc23)[C@@H](C)C1 [Compound 347]	A (percent of modification ≥70%)	A (percent of modification ≥70%)	A (percent of modification ≥70%)	< 500
C=CC(=O)N1CC[C@@H](N(C)c2nc(OC[C@@]34CCCN3C[C@H](F)C4)nc3cc(-c4ccc(F)c5sc(N)c(C#N)c45)c(C(F)(F)F)cc23)[C@H]1C [Compound 354, 4-(4-(((2R,3R)-1-acryloyl-2-methylpyrrolidin-3-yl)(methyl)amino)-2-(((2R,7aS)-2-fluorotetrahydro-1H-pyrrolizin-7a(5H)-yl)methoxy)-6-(trifluoromethyl)quinazolin-7-yl)-2-amino-7-fluorobenzo[b]thiophene-3-carbonitrile]	A (percent of modification ≥70%)	A (percent of modification ≥70%)	A (percent of modification ≥70%)	< 500
C=CC(=O)N1C[C@@H](F)[C@@H](N(C)c2nc(OC[C@@]34CCCN3C[C@H](F)C4)nc3cc(-c4ccc(F)c5sc(N)c(C#N)c45)c(C#N)cc23)C1 [Compound 372]	A (percent of modification ≥70%)	A (percent of modification ≥70%)	A (percent of modification ≥70%)	< 500
C=CC(=O)N1C[C@H](C)N(c2nc(OCC34CCCN3C[C@H](F)C4)nc3c(F)c(-c4ccc(F)c5sc(C(F)F)nc45)c(C(F)(F)F)cc23)C[C@H]1C (stereo partly drawn) [Compound 307]	D (percent of modification <10%)	D (percent of modification <10%)	C (10%≤percent of modification <50%)	> 20000
C=CC(=O)N1C[C@H](C)N(c2nc(OCC34CCCN3CCC4)nc3c(F)c(-c4ccc(F)c5sc(N)c(C#N)c45)c(Cl)cc23)C[C@H]1C [Compound 366]	A (percent of modification ≥70%)	B (50≤percent of modification <70%)	A (percent of modification ≥70%)	< 500
C=CC(=O)N1C[C@H](C)N(c2nc(OC[C@@]34CCCN3C[C@H](F)C4)nc3c(F)c(-c4ccc(F)c5sc(N)nc45)c(C#N)cc23)C[C@H]1C [Compound 326]	D (percent of modification <10%)	D (percent of modification <10%)	A (percent of modification ≥70%)	500 to 5000
C=CC(=O)N1C[C@@H](F)[C@@H](N(C)c2nc(OCC34CCCN3CCC4)nc3cc(-c4ccc(F)c5sc(N)c(C#N)c45)c(C(F)(F)F)cc23)C1 [Compound 369]	A (percent of modification ≥70%)	A (percent of modification ≥70%)	A (percent of modification ≥70%)	< 500

Continued, values first:

GppNHp-KRAS G12C percent of modification [1]	GTP-KRAS G12C percent of modification [2]	GDP-KRAS G12C percent of modification [3]	IC50 [4] [nM]	SMILES
B (50≤percent of modification <70%)	B (50≤percent of modification <70%)	B (50≤percent of modification <70%)	< 500	C=CC(=O)N1CCC(N(C)c2nc(OC[C@@H]3CCCN3C)nc3c(F)c(-c4ccc(F)c5sc(N)c(C#N)c45)c(C(F)(F)F)cc23)C1COC (stereo partly drawn) [Compound 426, 4-(4-((1-acryloyl-2-(methoxymethyl)pyrrolidin-3-yl)(methyl)amino)-8-fluoro-2-(((S)-1-methylpyrrolidin-2-yl)methoxy)-6-(trifluoromethyl)quinazolin-7-yl)-2-amino-7-fluorobenzo[b]thiophene-3-carbonitrile]
A (percent of modification ≥70%)	A (percent of modification ≥70%)	A (percent of modification ≥70%)	< 500	C=CC(=O)N1CCC(N(C)c2nc(OC[C@@H]3C[C@@H](OC)CN3C)nc3cc(-c4ccc(F)c5sc(N)c(C#N)c45)c(C#N)cc23)[C@H]1COC (stereo partly drawn) [Compound 465]
D (percent of modification <10%)	D (percent of modification <10%)	C (10%≤percent of modification <50%)	500 to 5000	C=CC(=O)N1CC[C@@H](N(C)c2nc(OCC)nc3c(F)c(-c4ccc(F)c5sc(N)c(C#N)c45)ccc23)[C@H]1C [Compound 463]
B (50≤percent of modification <70%)	C (10%≤percent of modification <50%)	A (percent of modification ≥70%)	< 500	C=CC(=O)N1CC[C@H](N(C)c2nc(OC[C@@]34CCCN3C[C@H](F)C4)nc3c(F)c(-c4ccc(F)c5sc(N)c(C#N)c45)c(Cl)cc23)[C@@H]1C (atropisomer, axis not shown) [Compound 467]
C (10%≤percent of modification <50%)	C (10%≤percent of modification <50%)	A (percent of modification ≥70%)	< 500	C=CC(=O)N1CCC(N(C)c2nc(OC[C@@]34CCCN3C[C@H](OC)C4)nc3c(F)c(-c4ccc(F)c5sc(N)c(C#N)c45)c(C(F)(F)F)cc23)[C@H]1C (stereo partly drawn) [Compound 476]
A (percent of modification ≥70%)	A (percent of modification ≥70%)	A (percent of modification ≥70%)	< 500	C=CC(=O)N1CCC(N(C)c2nc(OC[C@@]34CCCN3C[C@H](F)C4)nc3cc(-c4ccc(F)c5sc(N)c(C#N)c45)ccc23)[C@H]1COC (stereo partly drawn) [Compound 389, 4-(4-((1-acryloyl-2-(methoxymethyl)pyrrolidin-3-yl)(methyl)amino)-2-(((2R,7aS)-2-fluorotetrahydro-1H-pyrrolizin-7a(5H)-yl)methoxy)quinazolin-7-yl)-2-amino-7-fluorobenzo[b]thiophene-3-carbonitrile]
B (50≤percent of modification <70%)	B (50≤percent of modification <70%)	B (50≤percent of modification <70%)	< 500	C=CC(=O)N1CCC(N(CC)c2nc(OC[C@@H]3CC4(CC4)CN3C)nc3c(F)c(-c4ccc(F)c5sc(N)c(C#N)c45)c(C(F)(F)F)cc23)[C@H]1COC (stereo partly drawn) [Compound 445]
A (percent of modification ≥70%)	A (percent of modification ≥70%)	A (percent of modification ≥70%)	< 500	C=CC(=O)N1CCC(N(C)c2nc(OC[C@@H]3C[C@@H](F)CN3C)nc3c(F)c(-c4ccc(F)c5sc(N)c(C#N)c45)ccc23)[C@H]1COC (stereo partly drawn) [Compound 423]
